Consider 2 compounds from ChEMBL document CHEMBL1141574, “A comparison of chloroambucil- and xylene-containing polyamines leads to improved ligands for accessing the polyamine transport system” (J Med Chem, 2008).

A short description of data set [1]: Ratio of IC50 for PAT deficient CHO-MG cells to IC50 for PAT active CHO cells. The format is cell-based, Cricetulus griseus. The settings on record: chinese hamster. An outline of the steps:
(§1)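 CHO and CHO-MG grown in RPMI with 10% FCS, glutamine, penicillin/streptomycin and 2 mM aminoguanidine; CHO-MG medium also has L-proline (2 µg/mL); 37 °C, 5% CO2. Cells plated at 1 × 10⁴ cells/mL and drug added after overnight incubation. After 48 h exposure, growth read as MTT formazan absorbance at 540 nm. IC50 is the concentration giving 50% reduction in relative growth; ratio is CHO-MG IC50 over CHO IC50.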

The nature of data set [2]: Inhibition of [3H]spermidine uptake at PAT in mouse L1210 cells. In kind it is cell-based.
In data set [3] the test system is L1210. Briefly: Cytotoxicity against mouse L1210 cells after 24 hrs in presence of spermidine. In kind it is functional, cell-based.
The subject of data set [4] is L1210. Briefly: Cytotoxicity against mouse L1210 cells after 48 hrs. In kind it is functional, cell-based. An outline of the steps: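 L1210 cells in early to mid log phase, viability checked by trypan blue, grown in RPMI with 10% FCS, glutamine, antibiotics and 2 mM aminoguanidine at 37 °C, 5% CO2. Seeded at 6 × 10⁴ cells/mL with drug added at seeding. After 48 h exposure, growth read as MTT formazan at 540 nm. IC50 is the concentration reducing relative growth by 50%.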

The next data set relates to CHO. Briefly: Cytotoxicity against PAT active CHO cells after 48 hrs. In kind it is cell-based, Cricetulus griseus. The method in brief:
as §1

The test system of a further data set is CHO-MG. Briefly: Cytotoxicity against PAT deficient CHO-MG cells after 48 hrs. The format is cell-based, Cricetulus griseus. The method in brief: as §1

Take `Cl.Cl.Cl.Cl.NCCCCNCc1ccc(N(CCCl)CCCl)cc1`: the Ratio IC50 in data set [1] was determined as 0.6.

As usually defined, the Ki is a dissociation constant, usually derived from enzyme kinetics or from competition with a known ligand. The term IC50 denotes the concentration needed to halve the response being measured. As to `NCCCCNCc1ccc(N(CCCl)CCCl)cc1`, the Ki in data set [2] was 75 µM. Also, the IC50 worked out at 2.59 µM in the data set on L1210 [3], 2.18 µM in the data set on L1210 [4], 28.5 µM with CHO and 17.1 µM in the data set with CHO-MG.
